Experimental findings from patent EP2204363A1, “New disubstituted phenylpiperidines/piperazines as modulators of dopamine neurotransmission” (NSAB, Filial af NeuroSearch Sweden AB, Sverige, priority 2004, dated 2005) are described below.

For the experiment, the system named is amphetamine-induced hyper-locomotion. The conditions noted are these: rats pre-treated with d-amphetamine 1.5 mg/kg i.p.; test compound s.c.; last 45 minutes of one hour; range covers 95% of fits.

As for `COc1cccc(C2(O)CCN(C)CC2)c1OC` [Example 1 and 2 in US 4,415,736], the “ED50 reduction of amphetamine-induced hyper-locomotion” value is on record as “Inactive”.
